Data as given in ChEMBL document CHEMBL2163335, “Structure-functional selectivity relationship studies of β-arrestin-biased dopamine D₂ receptor agonists” (J Med Chem, 2012).

Protein sequences, listed by entry. Tags and fused reporters are not part of them.
UniProt P14416, whole entry: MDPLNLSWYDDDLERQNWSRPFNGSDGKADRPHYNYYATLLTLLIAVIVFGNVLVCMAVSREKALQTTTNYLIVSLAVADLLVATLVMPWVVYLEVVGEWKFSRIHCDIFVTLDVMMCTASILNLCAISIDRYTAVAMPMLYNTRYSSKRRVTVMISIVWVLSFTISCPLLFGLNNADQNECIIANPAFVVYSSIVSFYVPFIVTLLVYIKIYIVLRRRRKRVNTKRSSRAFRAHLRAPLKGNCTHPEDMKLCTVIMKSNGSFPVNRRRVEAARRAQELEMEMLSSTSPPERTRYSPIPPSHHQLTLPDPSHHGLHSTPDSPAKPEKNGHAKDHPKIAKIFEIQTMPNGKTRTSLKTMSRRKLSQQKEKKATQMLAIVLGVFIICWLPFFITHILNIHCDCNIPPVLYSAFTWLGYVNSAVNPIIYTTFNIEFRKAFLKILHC

These compounds were tested against T1, D(2) dopamine receptor (Homo sapiens, UniProt P14416) (assay: not given). Conditions: not given.
Format: functional, cell-based, HTLA

Row | Structure (SMILES) | EC50 [nM]
1 | Clc1cccc(N2CCCN(CCCCOc3ccc4scnc4c3)CC2)c1Cl | 25
2 | O=c1[nH]c2ccc(OCCCCN3CCC(c4cccc(Cl)c4Cl)CC3)cc2[nH]1 | 20
3 | O=C1CCc2ccc(OCCCCN3CCN(c4cccc(Cl)c4Cl)CC3)nc2N1 | 3.2

These compounds were tested against T1, D(2) dopamine receptor (assay: not given). Conditions: HTLA, 6 uM.

Row | Structure (SMILES) | Emax [%]
4 | O=c1[nH]c2ccc(OCCCCN3CCN(c4cccc(Cl)c4Cl)CC3)cc2[nH]1 | 65
5 | Clc1cccc(N2CCN(CCCCOc3ccc4cn[nH]c4c3)CC2)c1Cl | 61
6 | O=C1CCc2ccc(Oc3ccc(CN4CCN(c5cccc(Cl)c5Cl)CC4)cc3)cc2N1 | 48
7 | O=C1NCCc2ccc(OCCCCN3CCN(c4cccc(Cl)c4Cl)CC3)cc21 | 46
8 | O=C1CCc2ccc(Oc3cccc(CN4CCN(c5cccc(Cl)c5Cl)CC4)c3)cc2N1 | 57
9 | Clc1cccc(N2CCN(CCCCOc3ccc4scnc4c3)CC2)c1Cl | 63

What follows are compounds tested against T1, D(2) dopamine receptor (assay: not given). Conditions: HTLA, at 6 µM.

Row | Structure (SMILES) | Emax [%]
10 | O=C1CCc2ccc(OCCCCN3CCCN(c4cccc(Cl)c4Cl)CC3)nc2N1 | 47
11 | Clc1cccc(N2CCN(CCCOc3ccc4cn[nH]c4c3)CC2)c1Cl | 78
12 | O=C1NCCc2ccc(OCCCN3CCCN(c4cccc(Cl)c4Cl)CC3)cc21 | 41
13 | Clc1cccc(C2CCN(CCCOc3ccc4scnc4c3)CC2)c1Cl | 97
14 | O=C1NCCc2ccc(OCCCN3CCN(c4cccc(Cl)c4Cl)CC3)cc21 | 84
15 | Clc1cccc(N2CCN(CCCOc3ccc4scnc4c3)CC2)c1Cl | 88
16 | O=C1CCc2ccc(OCCCCN3CCN(c4cccc(Cl)c4Cl)CC3)nc2N1 | 73

The compounds below were run against T1, D(2) dopamine receptor (assay: biochemical). Conditions: not given.
Format: cell-based, CHO

Row | Structure (SMILES) | Ki [nM]
17 | O=C1CCc2ccc(OCCCCN3CCN(c4cccc(Cl)c4Cl)CC3)nc2N1 | 3.4
